Our source for the PI values is ChEMBL document CHEMBL1143470, “Synthesis and anticonvulsant activity of 7-alkoxyl-4,5-dihydro-[1,2,4]triazolo[4,3-a]quinolines” (Bioorg Med Chem Lett, 2005).

For the assay, the species on record is Mus musculus. Put plainly: Protective index (TD50/ED50) produced by compound in mouse after MES test.

As for `NC(=O)N1c2ccccc2C=Cc2ccccc21` [CARBAMAZEPINE], the PI is given as 8.1.
